# Source: PubChem
# Only some compounds are listed: those with a hit (about 1.5% of all), similar ones and a draw of the others.
# Cneo AK release: causes C. neoformans cell lysis; lysis activity, % at 15 µM; adenylate kinase release luminescence, 4 h; normalised: neutral wells 0, clomiphene wells 100; 360,000 tested, 0.2% active;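 active means mean lysis activity across replicates of at least 80%, whatever share of replicates individually reach that level; inactive means mean lysis activity below 80%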
#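 Test system: log-phase Cryptococcus neoformans yeast cells. Input: 5 × 10^6 yeast cells/mL. Medium: fresh YPD growth medium. Doses: single dose. Incubation: static 4 h at 37 °C with compound, 1 h detection. Measured by: luminescent adenylate kinase detection reagent. Read-out: signal increase indicating cell lysis. Benchmarks: Clomiphene.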
# miR-122 sensor: blocks miR-122 activity in Huh7 sensor cells. Huh7 miR-122 Renilla luciferase sensor, 48 h; neutral wells = 0, positive control = 100. activation (reporter increase), % at 12.5 µM. 340,000 tested, 0.3% active. AID 602342;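 active means mean replicate activation score at least 90 and every replicate individually at or above 90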;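 further: higher luciferase means less miR-122 activity so hits act as miR-122 inhibitors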
# FN deposit inh: fibronectin deposition inhibition; AH1F fibroblasts, Alexa488-fibronectin deposition fluorescence, overnight; inhibition, % at 12.6 µM; 350,000 tested, 0.086% active;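 active means mean inhibition across replicates of 30% or more, regardless of how many single replicates reach that level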
#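 Material: AH1F fibroblast monolayer depositing Alexa488-labelled fibronectin into matrix | Input: 10000 AH1F cells/well | Medium: DMEM plus 2% serum, read in PBS | Reagent: Alexa488-fibronectin, 24 nM final in well | Compound dosing: One dose per compound, pinned | Schedule: 1 h adhesion, overnight exposure | Measured by: Fluorescence at 485 nm excitation, 525 nm emission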
# PGC1a acetyl inh: PGC1a acetylation modulation, inhibitor mode; U2OS PGC1a acetylation, AlphaScreen anti-acetyl-lysine; with virally co-expressed GCN5 acetyltransferase; inhibition, % at 15.6 µM; 350,000 tested, 0.17% active; AID 651687;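 active means every replicate shows inhibition of at least 40%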
# HIV Env fusion: HIV envelope-mediated fusion inhibition. HeLa-JRFL Env/CEM21 cell fusion, luciferase. AID 651610. inhibition, % at 12.3 µM. 360,000 tested, 1.1% active;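 active means mean replicate inhibition score of at least 50 and every replicate individually at or above 50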
# Yeast UUG start: modulators of yeast start codon fidelity, primary screen, whole organism, S. cerevisiae, single point, plate reader; S. cerevisiae UUG-firefly luciferase reporter, luminescence/redox ratio; activity score, % at 18.7 µM; 0.13% of 350,000 active; AID 602363, 2012;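 active = replicate mean at a twofold rise or more, about +100% in these data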;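 also: firefly luciferase made from a UUG start codon reports start codon fidelity; reporter light over untreated wells divided by growth signal over untreated wells; some hits fall short of that in this replicate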
# Numbers stand for hits; i = inactive; nt = no result given; [ ] = another dose, or the depositor's remark.
SMILES,Cneo AK release,miR-122 sensor,FN deposit inh,PGC1a acetyl inh,HIV Env fusion,Yeast UUG start
CCCNC(=O)Nc1ccc2c(c1)C(=O)N(C)C[C@H](OC)[C@@H](C)CN(C(=O)CC)[C@@H](C)CO2,99,i,i,i,i,nt
CO[C@H]1CN(C)C(=O)c2cc(NC(C)=O)ccc2OC[C@@H](C)N(C(=O)CN2CCOCC2)C[C@H]1C,i,i,31,i,i,i
CCCNC(=O)Nc1ccc2c(c1)C(=O)N(C)C[C@@H](OC)[C@@H](C)CN(C(=O)CC)[C@H](C)CO2,91,i,i,i,i,nt
COc1ccc(NC(=O)CN2C(=O)NC(C)(c3ccc4c(c3)OCCO4)C2=O)cc1S(N)(=O)=O (stereo not given),i,i,i,i,nt,i
CCOC(=O)c1cc2sccc2n1CC(=O)Nc1ccc(OC)cc1OC,i,i,nt,i,nt,i
C[C@@H]1CN([C@H](C)CO)C(=O)c2cc(NC(=O)Nc3ccc(C(F)(F)F)cc3)ccc2O[C@@H](C)CCCCO[C@H]1CN(C)Cc1ccccc1,i,i,i,i,66[16.7 µM],i
C[C@@H]1CCCCO[C@H](CN(C)Cc2ccccc2)[C@@H](C)CN([C@@H](C)CO)C(=O)c2cc(NC(=O)Nc3ccc(C(F)(F)F)cc3)ccc2O1,i,i,i,i,88[16.7 µM],i
C[C@H](CO)N1C[C@H](C)[C@@H](CN(C)Cc2ccccc2)OCCCC[C@H](C)Oc2ccc(NC(=O)Nc3ccc(C(F)(F)F)cc3)cc2C1=O,i,i,i,i,i,i
Cc1ccc(S(=O)(=O)Nc2ccc(N3CCOCC3)nc2)cc1,nt,nt,i,i,i,nt
CC[C@@]12C(=O)N(c3cccc(Br)c3)C(=O)N1[C@H](c1ccc(F)cc1)[C@@H]1C(=O)N(C3CCCCC3)C(=O)[C@@H]12,i,i,i,i,93,i
CC(C)C[C@@]12C(=O)N(c3cccc(Br)c3)C(=O)N1[C@H](c1ccc(F)cc1)[C@@H]1C(=O)N(C3CCCCC3)C(=O)[C@@H]12,i,nt,i,nt,104,i
CC[C@@]12C(=O)N(c3cccc(F)c3)C(=O)N1[C@H](c1ccc(F)cc1)[C@@H]1C(=O)N(C3CCCCC3)C(=O)[C@@H]12,i,i,nt,i,nt,i
C[C@@H]1CN([C@@H](C)CO)S(=O)(=O)c2ccc(-c3cncnc3)cc2O[C@H]1CN(C)C(=O)c1cccc(F)c1,i,i,nt,i,i,i
CCOc1ccc(N(CC(=O)NC2CCCCC2)C(=O)CCC(=O)Nc2nc(C)cs2)cc1,i,i,i,i,i,i
C/C(=N\NC(=O)c1cccc(S(=O)(=O)Nc2cccc(Cl)c2)c1)c1cccs1,i,148,i,nt,i,i
CC(=O)C[C@H]1c2cc(C(F)(F)F)ccc2S(=O)(=O)N1c1ccccc1,i,99,i,i,i,i
CC(=O)C[C@H]1c2cc(C(F)(F)F)ccc2S(=O)(=O)N1Cc1ccccc1,i,nt,i,nt,i,i
Cc1ccc(NC(=S)NNC(=S)NC2CCCCC2)cc1,nt,nt,i,i,i,nt
COc1ccccc1-c1ccccc1[C@H]1[C@H](C#N)N(C(=O)C2CC2)[C@H]1CO,nt,nt,i,i,nt,nt
CCCOP(=O)(OCCC)C(Nc1cccc(C(F)(F)F)c1)c1ccc(C)cc1 (stereo not given),i,i,i,i,81,i
CCOP(=O)(OCC)C(Nc1cccc(C(F)(F)F)c1)c1ccc(C)cc1 (stereo not given),i,i,i,i,nt,i
O=C(Cn1nc(C(F)(F)F)c2c1CCCC2)NCCN1CCOCC1,i,i,nt,nt,i,i
COc1ccc(N2CC(O)=C(c3nc4ccccc4s3)C2=N)c(OC)c1,i,102,i,nt,i,i
C=CCn1c(SCC(=O)Nc2ccc(OC)cc2)nc2c([nH]c3ccccc32)c1=O,i,i,i,i,i,i
O=C(Cn1cnc2c(OCc3ccccc3)ncnc21)NCc1ccc2[nH]ccc2c1,i,i,i,i,i,i
SMILES,Cneo AK release,miR-122 sensor,FN deposit inh,PGC1a acetyl inh,HIV Env fusion,Yeast UUG start
CC(C)CC(C(=O)Nc1cccc(O)c1)N1C(=O)c2ccccc2C1=O (stereo not given),i,i,i,nt,i,i
CN(C)C(=O)c1cccc(-c2cnc3c(NC=O)cc(-c4cccc(C(F)(F)F)c4)cn23)c1,i,nt,i,i,56,i
O=C(NC12CC3CC(CC(C3)C1)C2)OCCNC1CCCCC1,nt,nt,i,nt,77,nt
O=c1c2cc(N3CCOCC3)ccc2[nH]c(=S)n1Cc1ccc(Cl)cc1,i,i,41,i,i,i
CC(C)OCCCn1c(=S)[nH]c2ccc(N3CCOCC3)cc2c1=O,i,i,nt,i,72,i
COc1cc(CNCCN2CCOCC2)ccc1OCc1ccc(Cl)cc1Cl,i,i,nt,101,nt,i
CCN1[C@H](C(=O)N(C)C)[C@@H](CO)[C@@H]2Cn3c(ccc(-c4ccc(OC)cc4)c3=O)[C@@H]21,i,i,nt,nt,nt,nt
C[C@@H](C(=O)Nc1ccc2ccccc2c1)[C@@H]1C[C@@]1(C)[C@@H](NC(=O)c1ccccc1)c1ccccc1,i,i,i,i,i,i
C[C@@H](C(=O)Nc1ccc2ccccc2c1)[C@H]1C[C@]1(C)[C@H](NC(=O)c1cccnc1)c1ccccc1,nt,nt,i,nt,68,nt
CCc1cccc(NC(=O)C2CCN(S(=O)(=O)c3ccc4c(c3)CC(C)N4C(C)=O)CC2)c1 (stereo not given),i,i,i,i,68,i
CNC(=O)COC(=O)c1cc(F)c(F)cc1Cl,i,i,nt,i,nt,i
O=C(C[C@@H]1C[C@@H]2c3cc(NC(=O)Cc4ccncc4)ccc3O[C@@H]2[C@H](CO)O1)NCCN1CCCCC1,i,i,nt,i,i,nt
CCOC(=O)CS(=O)(=O)c1nc(-c2ccc(F)cc2)cc(C(F)(F)F)n1,i,i,nt,i,nt,i
CCOC(=O)CCS(=O)(=O)c1nc(-c2ccccc2)cc(C(F)(F)F)n1,i,i,nt,68,nt,i
CCOC(=O)CS(=O)(=O)c1nc(-c2ccccc2)cc(C(F)(F)F)n1,nt,i,nt,58,nt,nt
CSc1nc(N)nc2c1ncn2CC(=O)NCc1ccc2[nH]ccc2c1,i,i,nt,i,i,i
S=C(Nc1ccc2nsnc2c1)NC1CCCCC1,nt,nt,i,nt,i,nt
Cc1ccccc1NC(=S)NC1CCCC1,i,i,i,nt,i,i
S=C(Nc1ccc(Cl)c(Cl)c1)NC1CCCCC1,nt,159,nt,i,nt,nt
S=C(Nc1ccccc1Cl)NC1CCCCCC1,i,149,i,i,i,i
CCCNC(=O)[C@@H]1[C@@H](CO)[C@@H]2Cn3c(cccc3=O)[C@@H]2N1Cc1ccccn1,i,i,nt,i,nt,nt
CS(=O)(=O)Nc1ccc(C(=O)NCCSCc2ccco2)cc1,i,i,nt,i,nt,i
C[C@H]1CN([C@@H](C)CO)S(=O)(=O)c2ccc(C#Cc3ccccn3)cc2O[C@@H]1CN(C)Cc1ccccc1,107,i,i,i,i,i
COCC#Cc1ccc2c(c1)O[C@H](CN(C)Cc1ccc3c(c1)OCO3)[C@@H](C)CN([C@@H](C)CO)S2(=O)=O,i,109[16.7 µM],nt,i,i,i
